Our source for the Ki and EC50 values is ChEMBL document CHEMBL1132995, “High-affinity, non-peptide agonists for the ORL1 (orphanin FQ/nociceptin) receptor” (2000).

Assay [1] has as its target T1, Kappa-type opioid receptor (Homo sapiens, UniProt P41145). As to the kind of experiment: Competitive binding displacement analyses was performed from permanently transfected HEK293 cells expressing human Opioid receptor kappa 1.
Assay [2] has as its target T2, Delta-type opioid receptor (Homo sapiens, UniProt P41143). As to the kind of experiment: Competitive binding displacement analyses was performed from permanently transfected HEK293 cells expressing human Opioid receptor delta 1.
The target of assay [3] is T3, Mu-type opioid receptor (Homo sapiens, UniProt P35372). As to the kind of experiment: Competitive binding displacement analyses was performed from permanently transfected HEK293 cells expressing human Opioid receptor mu 1.
The target of assay [4] is T4, Nociceptin receptor (Homo sapiens, UniProt P41146). As to the kind of experiment: Competitive binding affinity against transfected HEK293 cells expressing human Opioid receptor like 1.
The target of assay [5] is T1, Kappa-type opioid receptor. The assay can be described thus: Competitive binding displacement analyses was performed from permanently transfected HEK293 cells expressing Opioid receptor kappa 1.
Assay [6] concerns the target T3, Mu-type opioid receptor. As to the kind of experiment: Competitive binding displacement analyses was performed from permanently transfected HEK293 cells expressing Opioid receptor mu 1.
The target of assay [7] is T4, Nociceptin receptor. The assay can be described thus: Competitive binding affinity against transfected HEK293 cells expressing Opioid receptor like 1.
In assay [8] the target is T4, Nociceptin receptor. As to the kind of experiment: Effective concentration required to stimulate binding of GTPgammaS to ORL1 receptor was determined using scintillation proximity assay. For orientation: SPA uses beads or plates that emit light when radiolabelled molecules are held near them.
In assay [9] the target is T3, Mu-type opioid receptor. The assay can be described thus: Effective concentration required to stimulate binding of GTPgammaS to mu1 receptor was determined using scintillation proximity assay.
For assay [10], the target named is T2, Delta-type opioid receptor. The assay can be described thus: Competitive binding displacement analyses was performed from permanently transfected HEK293 cells expressing Opioid receptor delta 1.

By Ki is commonly meant a dissociation constant, usually derived from enzyme kinetics or from competition with a known ligand. Low readings indicate higher affinity, high ones lower affinity. In the case of `O=C1NCN(c2ccccc2)C12CCN(C1CCc3cc(Cl)ccc3C1)CC2` (configuration not stated), the Ki in assay [1] is 149 nM; in assay [2], 1800 nM; in assay [3] it was 77 nM; in assay [4], 218 nM.
In the case of `O=C1NCN(c2ccccc2)C12CCN(C1CCc3cccc(Cl)c3C1)CC2` (configuration not stated), the Ki in assay [1] was 48 nM; in assay [2] it was 1410 nM; in assay [3], 16.6 nM; in assay [4], 7.3 nM.
For `O=C1NCN(c2ccccc2)C12CCN([C@H]1CCCc3ccccc31)CC2`, the Ki in [5] amounted to 17 nM; in assay [6], 13.3 nM; in [7], 10.2 nM.
For orientation: EC50 means the concentration that produces a half-maximal response. Take `Cc1cccc2c1CCCC2N1CCC2(CC1)C(=O)NCN2c1ccccc1` (configuration not stated): the Ki in assay [1] came out at 44 nM; in assay [2], 460 nM; in [3], 31.7 nM; in assay [4], 1.4 nM. The figures for the EC50 in [8] and in [9] were 510 nM and 3700 nM, respectively.
As for `O=C1NCN(c2ccccc2)C12CCN(C1CCc3ccc(Cl)cc3C1)CC2` (configuration not stated), the Ki in assay [1] is 16.4 nM; in [2], 480 nM; in [3] it was 10.9 nM; in [4], 5.8 nM.
The corresponding values for `O=C1NCN(c2ccccc2)C12CCN(C1CCc3ccccc3C1)CC2` (configuration not stated) are 47.1 nM, 620 nM, 15.1 nM and 6.3 nM.
As for `O=C1NCN(c2ccccc2)C12CCN([C@@H]1CCCc3ccccc31)CC2`, the Ki amounted to 46.3 nM in assay [5], 12.3 nM in assay [6], 2.5 nM in assay [7] and 530 nM in assay [10].
Regarding `O=C(CN1CN(c2ccccc2)C2(CCN(C3CCc4cccc(Cl)c4C3)CC2)C1=O)c1ccccc1` (configuration not stated), the Ki in assay [1] came out at 28.8 nM; in assay [2] it was 510 nM; in [3] it was 61 nM; in assay [4], 15 nM.
Turning to `O=C1N(Cc2ccccc2)CN(c2ccccc2)C12CCN(C1CCc3c(Cl)ccc(Cl)c3C1)CC2` (configuration not stated), the Ki in assay [1] came to 52 nM; in assay [2], 146 nM; in assay [3] it was 19.2 nM; in [4], 15.3 nM.
Consider `O=C1NCN(c2ccccc2)C12CCN(C1CCCc3ccccc31)CC2` (configuration not stated), for which the Ki in [5] turned out to be 10.7 nM; in assay [6], 12.8 nM; in [7], 2.1 nM; in assay [10] it was 480 nM. The same molecule registered a concentration for a half-maximal effect (EC50) in assay [8] of 87 nM.
